According to patent US20240360082A1, “SUBSTITUTED PYRIDONE COMPOUNDS USEFUL TO TREAT ORTH[…]” (priority 2021, published 2024):
Where two headings read alike, the source gives them in different places.

Test system: influenza virus (multiple flu strains)
Test: organism not typed
Settings: MDCK
[1] = read-out: NA Alaska H3N2, NA assay, Alaska H3N2 strain
[2] = read-out: NA CAL H1N1, NA assay, CAL H1N1 strain
[3] = read-out: NA Alaska H3N2 IC50, NA assay, Alaska H3N2 strain
[4] = read-out: NA CAL H1N1 IC50, NA assay, CAL H1N1 strain
[5] = read-out: NA—PR8 H1N1, NA assay, PR8 H1N1 strain

Q: What does the source list for `N#Cc1cncc(COc2ccc(-c3cc(C(N)=O)c(=O)[nH]c3C(F)(F)F)cc2)c1` [Example 99, 5-(4-((5-cyanopyridin-3-yl)methoxy)phenyl)-2-oxo-6-(trifluoromethyl)-1,2-dihydropyridine-3-carboxamide]?
A: IC50 [1]: 10 to 100 nM; IC50 [2]: 100 to 1000 nM

Q: What does the source list for `NC(=O)c1cc(-c2ccc(OCC3COCCO3)cc2F)c(C(F)(F)F)[nH]c1=O` (centres unmarked) [Example 245, 5-(4-((1,4-dioxan-2-yl)methoxy)-2-fluorophenyl)-2-oxo-6-(trifluoromethyl)-1,2-dihydropyridine-3-carboxamide]?
A: IC50 [3]: 100 to 1000 nM; IC50 [4]: 10000 to 25000 nM

Q: How did the IC50 [1] turn out when `NC(=O)c1cc(-c2ccc(C(c3cnco3)N3CCOCC3)cc2)c(C(F)(F)F)[nH]c1=O` (centres unmarked) [Example 48, 5-(4-(morpholino(oxazol-5-yl)methyl)phenyl)-2-oxo-6-(trifluoromethyl)-1,2-dihydropyridine-3-carboxamide] was run?
A: Its IC50 is 5000 to 10000 nM.

Q: And the IC50 [2]?
A: The IC50 was 10000 to 25000 nM.

Q: How did the IC50 [1] turn out when `CCCCCCCNc1ncc(COc2ccc(-c3cc(C(N)=O)c(=O)[nH]c3C(F)(F)F)cc2)cn1` [Example 164, 5-(4-((2-(heptylamino)pyrimidin-5-yl)methoxy)phenyl)-2-oxo-6-(trifluoromethyl)-1,2-dihydropyridine-3-carboxamide] was run?
A: The IC50 was 10 to 100 nM.

Q: What about the IC50 [2] of the same compound?
A: Its IC50 is 100 to 1000 nM.

Q: Which IC50 [1] does the source give for `N#Cc1ccc(COc2ccc(-c3cc(C(N)=O)c(=O)[nH]c3C(F)(F)F)cc2)cc1` [Example 77, 5-(4-((4-cyanobenzyl)oxy)phenyl)-2-oxo-6-(trifluoromethyl)-1,2-dihydropyridine-3-carboxamide] here?
A: Its IC50 is 100 to 1000 nM.

Q: And the IC50 [2]?
A: The IC50 was 5000 to 10000 nM.

Q: How did the IC50 [1] turn out when `NC(=O)c1cc(-c2ccc(OCc3cnc(OC4CCOC4)nc3)cc2)c(C(F)(F)F)[nH]c1=O` (centres unmarked) [Example 154, 2-oxo-5-(4-((2-((tetrahydrofuran-3-yl)oxy)pyrimidin-5-yl)methoxy)phenyl)-6-(trifluoromethyl)-1,2-dihydropyridine-3-carboxamide] was run?
A: The IC50 was 100 to 1000 nM.

Q: And the IC50 [2]?
A: The IC50 was 5000 to 10000 nM.

Q: How did the IC50 [3] turn out when `CN1C(=O)COCC1COc1ccc(-c2cc(C(N)=O)c(=O)[nH]c2C(F)(F)F)cc1` (centres unmarked) [Example 251, 5-(4-((4-methyl-5-oxomorpholin-3-yl)methoxy)phenyl)-2-oxo-6-(trifluoromethyl)-1,2-dihydropyridine-3-carboxamide] was run?
A: The IC50 was 1000 to 5000 nM.

Q: With `N#CCc1cccc(-c2cc(C(N)=O)c(=O)[nH]c2C(F)(F)F)c1` [Example 22, 5-(3-(cyanomethyl)phenyl)-2-oxo-6-(trifluoromethyl)-1,2-dihydropyridine-3-carboxamide] as the compound, how does the IC50 [5] read?
A: The IC50 was 5000 to 10000 nM.

Q: Which IC50 [1] does the source give for `COc1ccnc(COc2ccc(-c3cc(C(N)=O)c(=O)[nH]c3C(F)(F)F)cc2)c1` [Example 127, 5-(4-((4-methoxypyridin-2-yl)methoxy)phenyl)-2-oxo-6-(trifluoromethyl)-1,2-dihydropyridine-3-carboxamide] here?
A: Its IC50 is 1000 to 5000 nM.

Q: What about the IC50 [2] of the same compound?
A: Its IC50 is 1000 to 5000 nM.

Q: Which IC50 [1] does the source give for `NC(=O)c1cc(-c2ccc(OCc3cc([N+](=O)[O-])ccc3Cl)cc2)c(C(F)(F)F)[nH]c1=O` [Example 108, 5-(4-((2-chloro-5-nitrobenzyl)oxy)phenyl)-2-oxo-6-(trifluoromethyl)-1,2-dihydropyridine-3-carboxamide] here?
A: Its IC50 is 100 to 1000 nM.

Q: What about the IC50 [2] of the same compound?
A: The IC50 was 100 to 1000 nM.

Q: Which IC50 [1] does the source give for `NC(=O)c1cc(-c2ccc(O)cc2)c(C(F)(F)F)[nH]c1=O` [Example 3, 5-(4-hydroxyphenyl)-2-oxo-6-(trifluoromethyl)-1,2-dihydropyridine-3-carboxamide] here?
A: Its IC50 is 1000 to 5000 nM.

Q: `NC(=O)c1cc(-c2ccc(OCc3ccc4cn[nH]c4c3)cc2)c(C(F)(F)F)[nH]c1=O` [Example 85, 5-(4-((1H-indazol-6-yl)methoxy)phenyl)-2-oxo-6-(trifluoromethyl)-1,2-dihydropyridine-3-carboxamide] was tested. Which IC50 [1] did it give?
A: Its IC50 is 1000 to 5000 nM.

Q: Which IC50 [3] does the source give for `NC(=O)c1cc(-c2ccc(OCCO)cc2)c(C(F)(F)F)[nH]c1=O` [Example 255, 5-(4-(2-hydroxyethoxy)phenyl)-2-oxo-6-(trifluoromethyl)-1,2-dihydropyridine-3-carboxamide] here?
A: The IC50 was 100 to 1000 nM.

Q: And the IC50 [4]?
A: Its IC50 is 5000 to 10000 nM.

Q: How did the IC50 [1] turn out when `NC(=O)c1cc(-c2ccc(OCc3ccsc3)cc2)c(C(F)(F)F)[nH]c1=O` [Example 110, 2-oxo-5-(4-(thiophen-3-ylmethoxy)phenyl)-6-(trifluoromethyl)-1,2-dihydropyridine-3-carboxamide] was run?
A: The IC50 was 100 to 1000 nM.

Q: And the IC50 [2]?
A: Its IC50 is 1000 to 5000 nM.

Q: What does the source list for `NC(=O)c1cc(-c2ccc(OCc3ccc4nccnc4c3)cc2)c(C(F)(F)F)[nH]c1=O` [Example 131, 2-oxo-5-(4-(quinoxalin-6-ylmethoxy)phenyl)-6-(trifluoromethyl)-1,2-dihydropyridine-3-carboxamide]?
A: IC50 [1]: 100 to 1000 nM; IC50 [2]: 5000 to 10000 nM

Q: How did the IC50 [5] turn out when `NC(=O)c1cc(-c2ccc(CN3CCCC3)cc2)c(C(F)(F)F)[nH]c1=O` [Example 5, 2-oxo-5-(4-(pyrrolidin-1-ylmethyl)phenyl)-6-(trifluoromethyl)-1,2-dihydropyridine-3-carboxamide] was run?
A: The IC50 was 5000 to 10000 nM.

Q: What does the source list for `NC(=O)c1cc(-c2ccc(OCC3COCC4(CC4)O3)cc2)c(C(F)(F)F)[nH]c1=O` (single isomer, unassigned) [Example 335, (4-(4,7-dioxaspiro[2.5]octan-5-ylmethoxy)phenyl)-2-oxo-6-(trifluoromethyl)-1,2-dihydropyridine-3-carboxamide]?
A: IC50 [3]: 10 to 100 nM; IC50 [4]: 10 to 100 nM

Q: Which results are given for `NC(=O)c1cc(-c2ccc(OCC3CNCCO3)cc2)c(C(F)(F)F)[nH]c1=O` (centres unmarked) [Example 189, 5-(4-(morpholin-2-ylmethoxy)phenyl)-2-oxo-6-(trifluoromethyl)-1,2-dihydropyridine-3-carboxamide]?
A: IC50 [1]: 1000 to 5000 nM; IC50 [2]: 10000 to 25000 nM

Q: Which IC50 [1] does the source give for `NC(=O)c1cc(-c2ccc(OCCn3ccnc3)cc2)c(C(F)(F)F)[nH]c1=O` [Example 258, 5-(4-(2-(1H-imidazol-1-yl)ethoxy)phenyl)-2-oxo-6-(trifluoromethyl)-1,2-dihydropyridine-3-carboxamide] here?
A: The IC50 was 1000 to 5000 nM.

Q: What about the IC50 [2] of the same compound?
A: The IC50 was 25000 to 50000 nM.

Q: Which results are given for `CC1COCCN1Cc1ccc(-c2cc(C(N)=O)c(=O)[nH]c2C(F)(F)F)cc1` (centres unmarked) [Example 27, 5-(4-((3-methylmorpholino)methyl)phenyl)-2-oxo-6-(trifluoromethyl)-1,2-dihydropyridine-3-carboxamide]?
A: IC50 [1]: 100 to 1000 nM; IC50 [2]: 1000 to 5000 nM

Q: `NC(=O)c1cc(-c2ccc(OC[C@H]3CO[C@H]4[C@@H](O3)C4(F)F)cc2)c(C(F)(F)F)[nH]c1=O` [Example 391, 5-(4-((trans-7,7-difluoro-2,5-dioxabicyclo[4.1.0]heptan-3-yl)methoxy)phenyl)-2-oxo-6-(trifluoromethyl)-1,2-dihydropyridine-3-carboxamide] was tested. Which IC50 [3] did it give?
A: The IC50 was 10 to 100 nM.

Q: And the IC50 [4]?
A: Its IC50 is 10 to 100 nM.

Q: Which results are given for `NC(=O)c1cc(-c2ccc(OCC3CCO3)cc2)c(C(F)(F)F)[nH]c1=O` (centres unmarked) [Example 225, 5-(4-(oxetan-2-ylmethoxy)phenyl)-2-oxo-6-(trifluoromethyl)-1,2-dihydropyridine-3-carboxamide]?
A: IC50 [3]: 100 to 1000 nM; IC50 [4]: 1000 to 5000 nM

Q: For `N#Cc1cc(-c2cc(C(N)=O)c(=O)[nH]c2C(F)(F)F)ccc1OCC1COCCO1` (centres unmarked) [Example 241, 5-(4-((1,4-dioxan-2-yl)methoxy)-3-cyanophenyl)-2-oxo-6-(trifluoromethyl)-1,2-dihydropyridine-3-carboxamide], which IC50 [3] is on record?
A: Its IC50 is 1000 to 5000 nM.

Q: With `N#CCc1ccc(-c2cc(C(N)=O)c(=O)[nH]c2C(F)(F)F)cc1` [Example 20, 5-(4-(cyanomethyl)phenyl)-2-oxo-6-(trifluoromethyl)-1,2-dihydropyridine-3-carboxamide] as the compound, how does the IC50 [5] read?
A: Its IC50 is 1000 to 5000 nM.
